Screening data deposited in PubChem BioAssay by several laboratories.
Rev-erbA mod: modulators of Rev-erb alpha DNA binding, primary screen, biochemical, FITC-DNA, fluorescence polarization, uHTS; Nuclear receptor subfamily 1 group D member 1 (Homo sapiens), P20393; Rev-erbα–FITC-DNA binding, 90 min; activity, % at 10 µM; 370,000 tested, 0.79% active;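 active means activity above about 14%, limit read from the data; passing the limit was not always enough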;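 further: 0% = DMSO wells with 35 nM protein and 100% = DMSO wells with 750 nM protein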
UUG fidelity: yeast start codon fidelity modulation | S. cerevisiae UUG-firefly luciferase reporter, luminescence/redox ratio | activity score, % at 18.7 µM | hit rate 0.13% among 350,000 | AID 602363;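 active means replicate mean at a twofold rise or more, about +100% in these data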;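 further: firefly luciferase made from a UUG start codon reports start codon fidelity; reporter light over untreated wells divided by growth signal over untreated wells; some hits fall short of that in this replicate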
SMARCA2 activ: SMARCA2 (BRM) function activators, primary screen, cell-based, luminescence, high throughput; AID 652017, 2013; activation, % at 9.1 µM; 370,000 tested, 1% active; MG213 cells, MMTV-luciferase reporter, dexamethasone, overnight; in the data active means activation above about 7.8%;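 further: 0% = vehicle wells and 100% = reference activator wells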
ERp5 inh: inhibitors of ERp5-driven insulin aggregation, primary screen, biochemical, turbidity, absorbance 650 nm, single point; 90 min; inhibition, % at 9.99 µM; 350,000 tested, 0.05% active; AID 651711, 2012;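 active means mean replicate inhibition above about 25%, with every replicate also reaching it, limit read from the data, passing the limit was not always enough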
PDI inh: inhibitors of human PDI, primary screen, biochemical, turbidity, single point, plate reader. Protein disulfide-isomerase (Homo sapiens), P07237. PDI insulin aggregation turbidity, A650, 90 min. inhibition, % at 10 µM. 350,000 tested, 0.052% active. AID 588391, 2011;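 active means mean inhibition across replicates of 30% or more, whatever share of single replicates reach that level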
GSIS activator: GLuc luminescence reporter in INS-1E cells, primary screen for activators of glucose-dependent secretion of insulin. INS-1E GLuc reporter insulin secretion, 2-3 h. activation, % at 16.6 µM. 370,000 tested, 0.61% active;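 active means lowest replicate activation of at least 40%, so every replicate reaches that level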;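 further: 0% = median of neutral control wells and 100% = median of IBMX positive control wells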
SMARCA2 conf: SMARCA2 (BRM) function activators, confirmation, cell-based, luminescence, triplicate | shares compounds with SMARCA2 activ | 3,500 tested, 30% active | activation, % at 9.1 µM | MG213 cells, MMTV-luciferase with dexamethasone, overnight; MG213 cells expressing E1A, Rb sequestered; DMSO wells 0%, reference activator 100%;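 active means activation above its plate's cutoff, the mean activation of tested wells plus 3 SD, cut at about 7.9% in these data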
VP16 Luc act: GAL4-VP16 luciferase reporter activation, counter-screen for SMARCA2 (BRM) activator project, cell-based, pG5luc, luminescence, high throughput. 3,500 tested, 41% active. HEK293 GAL4-VP16 pG5luc reporter; scaled: DMSO wells 0%, SAHA wells 100%. shares compounds with SMARCA2 activ. activation, % at 9.1 µM;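 active means activation above the solvent-only control well mean plus 3 SD, averaged across control plates, cut at about 5.2% in these data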
An asterisk follows results filed as active; · = no result. Sampled rows, rich in hits. Any-hit rate of the full collection: about 2.1%.

SMILES	Rev-erbA mod	UUG fidelity	SMARCA2 activ	ERp5 inh	PDI inh	GSIS activator	SMARCA2 conf	VP16 Luc act
C[C@@H]1CN([C@@H](C)CO)C(=O)c2cc(NS(=O)(=O)c3cccs3)ccc2O[C@@H](C)CCCCO[C@@H]1CN(C)C(=O)Nc1ccc(C(F)(F)F)cc1	·	·	·	3	·	5	·	·
CC(C)NC(=O)N[C@H]1C=C[C@@H](CC(=O)NCCCN(C)C)O[C@@H]1CO	·	-10	·	2	·	7	·	·
COc1ccc(OC)c(/C=C/C(=O)Nc2ccc3c(c2)CCC3)c1	-4	-1	2	-1	8	3	·	·
COc1ccccc1/C=C/C(=O)Nc1ccc2c(c1)CCC2	-7	·	8.9*	·	6	-41	6	14*
CN(c1cccc(NC(=O)COc2ccc(Cl)cc2Cl)c1)S(C)(=O)=O	3	-11	9.4*	·	-2	·	0	9.1*
COC(=O)Cc1nnn2c1[C@H](C)[C@@H](OC)c1ccc(C(F)(F)F)cc1-2	-3	·	11*	3	·	-2	0	3
COC(=O)Cc1nnn2c1[C@H](C)[C@@H](OC)c1cccc(Cl)c1-2	4	·	-6	-3	·	34	·	·
O=C1NC(=S)S/C1=C\C=C\c1ccc([N+](=O)[O-])o1	-33	-1	24*	5	-1	-63	-16	3
CCCCOC(=O)Nc1nnc(C(C)C)s1	-4	·	8.0*	1	-10	17	8.6*	10.0*
CCCCCOC(=O)Nc1nnc(CCC)s1	4	-14	-4	1	16	-11	·	·
COc1ccc(NC(=O)N[C@H]2CC[C@@H](CCNC(=O)Cc3ccncc3)O[C@H]2CO)cc1	·	-6	·	1	·	-2	·	·
Cc1ccc(F)cc1NC(=O)CCC(=O)c1cccs1	-1	-24	-1	·	2	·	·	·
Cc1ccc(NC(=O)CCC(=O)c2cccs2)c(O)c1	1	·	10*	1	2	24	7	3
O=C(CCC(=O)c1cccs1)NC(c1ccccc1)c1ccccc1	0	-14	9.0*	·	0	·	-1	0
CC(NC(=O)CCC(=O)c1cccs1)c1ccccc1 (stereo not drawn)	-4	17	0	-2	-11	-7	·	·

Records above marked active in SMARCA2 conf.
compound	Rev-erbA mod	UUG fidelity	SMARCA2 activ	ERp5 inh	PDI inh	GSIS activator	SMARCA2 conf
CCCCOC(=O)Nc1nnc(C(C)C)s1	-4	·	8.0*	1	-10	17	8.6*

(more compounds)
SMILES	Rev-erbA mod	UUG fidelity	SMARCA2 activ	ERp5 inh	PDI inh	GSIS activator	SMARCA2 conf	VP16 Luc act
O=C(CC(=O)c1cccs1)c1ccncc1	-8	-27	10*	10	1	23	2	4
Cc1ccc2oc(C(=O)N3CCN(c4cccc(C)n4)CC3)c(C)c2c1	3	0	1	3	0	-7	·	·
Cc1cc(Cl)c2oc(C(=O)N3CCN(c4cccc(C)n4)CC3)c(C)c2c1	1	1	11*	-2	11	-10	7	15*
Cc1ccc(O)c(N=CC2=C(O)c3ccccc3C2=O)c1	6	-20	8.4*	·	-1	·	19*	14*
C[C@H](CO)N1C[C@H](C)[C@H](CN(C)C(=O)Nc2ccccc2)OCc2cn(nn2)CCCC1=O	·	·	·	1	·	2	·	·
CCOc1ccccc1NS(=O)(=O)c1ccc2c(c1)n(C)c(=O)c(=O)n2C	-2	-7	12*	·	-1	16	3	1
Cc1ccc(NC(=O)COC(=O)C2CCC(=O)N2)c([N+](=O)[O-])c1 (stereo not drawn)	-1	·	13*	-1	-2	22	-2	1
CCc1nnc(NC(=O)C2CCCN2C(=O)Nc2ccccc2OC)s1 (stereo not drawn)	-6	-19	8.8*	·	6	·	1	3
CCOc1ccccc1NC(=O)N1CCCC1C(=O)Nc1nnc(CC)s1 (stereo not drawn)	3	3	-4	·	11	·	·	·
O=C(C[C@@H]1CC[C@@H]2[C@H](COC[C@H](O)CN2C(=O)Nc2ccc(C(F)(F)F)cc2)O1)NCC1CCCCC1	·	·	·	-3	·	-32	·	·
CCOC(=O)c1nc(S(C)(=O)=O)ncc1Cl	-2	-26	34*	-2	-5	35	-1	4
CO[C@H]1CN(C)C(=O)c2ccc(NC(=O)Nc3ccccc3F)cc2OC[C@@H](C)N(C)C[C@H]1C	·	2	·	14	·	-5	·	·
O=c1oc2ccccc2cc1-c1nc(-c2cccs2)cs1	0	-15	7	·	5	·	·	·
CNc1nnc(-c2cc3ccccc3oc2=O)s1	-1	-13	8.3*	·	-1	·	13*	14*
C[C@H]1CN([C@@H](C)CO)C(=O)c2cc(NS(=O)(=O)c3ccc(Cl)cc3)ccc2O[C@H]1CN(C)CC1CC1	·	23	·	-5	·	13	·	·

Part of the list above in a different format.
Fields: Rev-erbA mod | UUG fidelity | SMARCA2 activ | ERp5 inh | PDI inh | GSIS activator | SMARCA2 conf | VP16 Luc act
- Cc1ccc(NC(=O)COC(=O)C2CCC(=O)N2)c([N+](=O)[O-])c1 (stereo not drawn)
 : -1 | · | 13* | -1 | -2 | 22 | -2 | 1
- CCOC(=O)c1nc(S(C)(=O)=O)ncc1Cl
 : -2 | -26 | 34* | -2 | -5 | 35 | -1 | 4

Following part.
SMILES	Rev-erbA mod	UUG fidelity	SMARCA2 activ	ERp5 inh	PDI inh	GSIS activator	SMARCA2 conf	VP16 Luc act
N/C(Cc1cccs1)=N\OC(=O)COc1ccc(Br)cc1Cl	-5	-24	8	·	-6	·	·	·
N/C(Cc1cccs1)=N\OC(=O)COc1ccccc1Cl	2	3	8.4*	·	0	-4	4	6.8*
Cn1c(=O)c([N+](=O)[O-])c(NCCc2ccccc2)c2ccccc21	-1	-9	12*	·	2	4	1	-1
Cc1ccc(C(=O)N/N=C2\CCc3ccccc32)c(C)c1	0	-10	8.5*	-2	-3	12	7	11*
O=C(N/N=C1\CCc2ccccc21)c1ccccc1Cl	-5	-26	3	0	-13	-2	·	·
COc1ccc2c3c([nH]c2c1)[C@H](CO)N(C(=O)CN1CCOCC1)CC31CCN(Cc2ccccc2)CC1	·	·	·	0	·	6	·	·
CC(=O)N(C)C[C@@H]1Oc2cc(C#CC(C)(C)O)ccc2S(=O)(=O)N([C@H](C)CO)C[C@@H]1C	·	-6	·	5	·	15	·	·
COCCNc1c(-c2cc3ccc(C)c(C)c3[nH]c2=O)nc2ccccn12	11	·	10*	-1	-4	2	18*	6.4*
COCCNc1c(-c2ccc(OC)c(OC)c2)nc2ccc(Cl)cn12	-1	-29	4	0	-1	18	·	·
CC(C)c1ccc(/C=N/NC(=O)CC(=O)NC2CCCCC2)cc1	-1	·	8.4*	0	-1	-1	0	1
C=CCOc1ccc(/C=N/NC(=O)CC(=O)NC2CCCCC2)cc1	1	-18	2	-2	-3	-2	·	·
CCOC(=O)c1c(C)oc2c1cc(O)c1ccccc12	5	·	8.1*	·	-1	·	9.8*	13*
OCCNCc1ccc(-c2ccccc2)cc1	-4	·	8.2*	-1	9	22	1	0
OC(CNCc1ccc(-c2ccccc2)cc1)c1ccccc1 (stereo not drawn)	5	·	-1	-1	-5	-34	·	·

An excerpt from above in order of the PDI inh value, low to high:
Compound,Rev-erbA mod,UUG fidelity,SMARCA2 activ,ERp5 inh,PDI inh,GSIS activator,SMARCA2 conf
CCOC(=O)c1nc(S(C)(=O)=O)ncc1Cl,-2,-26,34*,-2,-5,35,-1
O=C1NC(=S)S/C1=C\C=C\c1ccc([N+](=O)[O-])o1,-33,-1,24*,5,-1,-63,-16
O=C(CCC(=O)c1cccs1)NC(c1ccccc1)c1ccccc1,0,-14,9.0*,·,0,·,-1
Cc1ccc(F)cc1NC(=O)CCC(=O)c1cccs1,-1,-24,-1,·,2,·,·
